Reference: US20130295185A1, “COMPOUNDS AND METHODS FOR INDUCING APOPTOSIS IN CANCER CELLS USING A BH3 ALPHA-HELICAL MIMETIC” (H. Lee Moffitt Cancer Center and Research Institute, Inc., priority 2011, published 2013)

Columns and labels:
[1] = test system: Bax; assay: Bax conformational change (Bax 6A7 immunoprecipitation) in A549 cells; settings: A549, serum-starved, 1 h; tested form: diammonium salt (as drawn, CO2NH4)
Procedure: FIG. 4 is a series of images illustrating BH3-M6 inhibits the interaction between Bcl-XL, Bcl-2, and Mcl-1 with Bim, Bak or Bax in intact cells. (A) Co-immunoprecipitation from HEK293T cells. HEK293T cells were co-transfected with HA-Bcl-XL and Flag-BimEL for 18 h. Cells were exposed to 0, 25, 50, and 100 μM of BH3-M6 or 100 μM of TPC for 2 h at 37° C., lysed and subjected to immunoprecipitation with anti-FLAG-M2 beads. The resulting immune complexes, as well as total lysates, were analyzed by Western blotting with the indicated antibodies. (B) Co-immunoprecipitation from MDA-MB-468 cells expressing Bcl-XL-IRES-BimEL, Bcl-2-IRES-BimEL, and Mcl-1-IRES-BimEL. […] The resulting immune complexes were analyzed by Western blotting with Bim, Bcl-XL, Bcl-2, and Mcl-1 antibodies. […] The resulting immune complexes were analyzed by Western blotting with the indicated antibodies. […] The resulting immune complexes were analyzed by Western blotting with the antibodies indicated on the right. […]
Next the inventors determined whether BH3-M6 could disrupt these interactions of the corresponding endogenous proteins. […] Finally, a mechanism by which freed Bax is believed to induce apoptosis is through a conformational change, which can be detected by a specific antibody. […]

[2] = test system: A549 cells; assay: Apoptosis in A549 cells (DAPI staining, PARP cleavage); settings: A549, 48 h; tested form: diammonium salt (as drawn, CO2NH4)
Procedure: FIG. 5 is a series of images illustrating BH3-M6 induces apoptosis in a caspase-dependent manner. (A) BH3-M6 releases cytochrome c from mitochondria. Mitochondria from A549 cells were incubated at 37° C. with 0, 50 μM BH3-M6 or TPC for 60 min. Cytochrome c release was determined as described in Methods. B-D A549 cells were treated with the indicated BH3-M6 concentrations for up to 72 h and then processed for various assays as described in EXPERIMENTAL PROCEDURES. (B) BH3-M6 induces apoptosis after 48 h of exposure to BH3-M6, as shown by phase images of cells (left panel) or DAPI nuclear staining (right panel). The arrows point towards cells in the process of rounding. The images from phase and DAPI are from different experiments. […] (D) BH3-M6 decreases the viability of A549 cells in a dose-dependent manner as measured by MTT assay after 72 h treatment. […] Caspase-3/-7 activity was determined as described in EXPERIMENTAL PROCEDURES. […] Middle panel, PARP cleavage was measured by Western blotting. Lower panel, extent of apoptosis was measured by TUNEL assay.
(§1) Release of cytochrome c from isolated mitochondria was measured as described by Takahashi et al. (Takahashi, Y., Karbowski, M., Yamaguchi, H., Kazi, A., Wu, J., Sebti, S. M., Youle, R. J., and Wang, H. G. (2005) Mol Cell Biol 25, 9369-9382) Cell-free caspase-3/-7 activity and the extent of PARP cleavage was determined as described previously. […]

[3] = test system: DoHH2 cells; assay: Caspase-3/-7 activity, PARP cleavage and TUNEL apoptosis in DoHH2 cells; settings: tested form: diammonium salt (as drawn, CO2NH4)
Procedure: FIG. 5 is a series of images illustrating BH3-M6 induces apoptosis in a caspase-dependent manner. (A) BH3-M6 releases cytochrome c from mitochondria. Mitochondria from A549 cells were incubated at 37° C. with 0, 50 μM BH3-M6 or TPC for 60 min. Cytochrome c release was determined as described in Methods. B-D A549 cells were treated with the indicated BH3-M6 concentrations for up to 72 h and then processed for various assays as described in EXPERIMENTAL PROCEDURES. (B) BH3-M6 induces apoptosis after 48 h of exposure to BH3-M6, as shown by phase images of cells (left panel) or DAPI nuclear staining (right panel). The arrows point towards cells in the process of rounding. The images from phase and DAPI are from different experiments. […] (C) BH3-M6 induces PARP cleavage after 48 h of drug treatment. (D) BH3-M6 decreases the viability of A549 cells in a dose-dependent manner as measured by MTT assay after 72 h treatment. Error bars indicate standard deviations of triplicates. (E) upper panel, Activation of caspase-3/-7 by BH3-M6 is blocked by a pan-caspase inhibitor. DoHH2 cells were pretreated with 50 μM Boc-D-FMK, a pan-caspase inhibitor, followed by a co-treatment with 50 μM BH3-M6 for 24 h. Caspase-3/-7 activity was determined as described in EXPERIMENTAL PROCEDURES. Results shown represent one of two independent experiments in triplicate. Error bars indicate standard deviations of triplicates. Middle panel, PARP cleavage was measured by Western blotting. Lower panel, extent of apoptosis was measured by TUNEL assay.
as §1
Next, the inventors determined whether BH3-M6 requires caspase activity to induce apoptosis. […]

For CC(C)Cc1cc(-c2ccc(-c3ccc(CCC(=O)O)cc3CC(C)C)cc2Cc2ccccc2)ccc1OCC(=O)O, the “levels of Bax in its pro-apoptotic conformation” value [1] was “increased”, the “apoptosis as measured by DAPI staining” value [2] was “induced apoptosis” and the “appearance of an 85 kDa PARP fragment” value [2] was “concentration-dependent manner”. For the same compound, the “induced apoptosis (TUNEL)” value ([3]; DoHH2, 50 μM, 24 h) was 7.5 fold, the “induced caspase-3/-7 activity” value ([3]; DoHH2, 50 μM, 24 h) was 5 fold and the “caspase-3/-7 activity, PARP cleavage and apoptosis in presence of a pan-caspase inhibitor” value ([3]; DoHH2, pretreated with 50 μM Boc-D-FMK) was “abrogated”.
